In US8580321B2, “Method for reducing the effects of chemotherapy using flagellin related polypeptides” (priority 2003, dated 2013):

System: NIH Swiss mice treated with cisplatinum
Assay: Cisplatinum toxicity (weight loss, viability, behavior) in NIH Swiss mice
Settings: 2×MTD, majority of mice, by day 10

Substance: cisplatinum
- outcome of mice given cisplatinum 20 mg/kg with PBS: died or experienced >25% weight loss
